Data published in US5939560A, “Inhibitors of DP-mediated processes, compositions and therapeutic methods thereof” (Ferring B.V., priority 1993, dated 1999).

The chains behind the UniProt entries cited, without tags or fusion partners.
UniProt P27487, whole entry: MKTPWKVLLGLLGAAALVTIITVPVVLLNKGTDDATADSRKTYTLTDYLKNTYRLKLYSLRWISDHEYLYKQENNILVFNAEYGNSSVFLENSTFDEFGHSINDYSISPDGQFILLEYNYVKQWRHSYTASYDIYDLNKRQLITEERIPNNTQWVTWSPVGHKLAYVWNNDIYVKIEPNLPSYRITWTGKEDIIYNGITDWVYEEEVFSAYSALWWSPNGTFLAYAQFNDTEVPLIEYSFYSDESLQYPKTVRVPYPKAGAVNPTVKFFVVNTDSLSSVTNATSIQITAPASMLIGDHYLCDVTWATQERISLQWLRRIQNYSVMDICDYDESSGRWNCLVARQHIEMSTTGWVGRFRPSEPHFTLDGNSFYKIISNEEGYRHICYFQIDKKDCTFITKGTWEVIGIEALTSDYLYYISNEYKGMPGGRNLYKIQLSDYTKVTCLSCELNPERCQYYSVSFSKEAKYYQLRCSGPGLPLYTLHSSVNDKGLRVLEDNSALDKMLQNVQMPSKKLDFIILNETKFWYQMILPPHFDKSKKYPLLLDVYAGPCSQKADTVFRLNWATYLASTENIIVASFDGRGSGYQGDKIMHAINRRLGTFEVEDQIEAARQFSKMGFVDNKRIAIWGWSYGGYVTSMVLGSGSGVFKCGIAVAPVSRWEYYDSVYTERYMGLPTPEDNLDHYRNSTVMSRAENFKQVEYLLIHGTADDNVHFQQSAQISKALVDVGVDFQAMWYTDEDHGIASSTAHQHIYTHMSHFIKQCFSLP

Molecular target: pure human DP-IV (Homo sapiens, UniProt P27487)
Assay: Inhibition of pure human DP-IV in vitro, fluorescent substrate Ala-Pro-AFC, Ki from Dixon plots
Conditions: read-out: Ki against DP-IV, pH 7.8, substrate Ala-Pro-AFC

Molecule `N[C@@H]1CC=CC[C@H]1C(=O)N1CCCC1` (relative stereo) has a Ki of 7.6 µM.
